Assays:
[1] = biological target: GS21015 (Homo sapiens, UniProt Q86XP0, P10T); test: Inhibitory action on phospholipase A2 activity of GS21015 (release of [14C]arachidonic acid from 1-palmitoyl-2-arachidonyl-phosphatidylcholine)
Description: Supernatant of the cell lysate was obtained from cells overexpressing GS21015 (COS-7 cells with which the expression vector plasmid for GS21015 was transfected) in the same manner as in Example 4 mentioned above, and the resulting supernatant was used as an enzyme solution. In addition, using 1-palmitoyl-2-arachidonyl-phosphatidylcholine as a substrate, the activity of hydrolyzing this substrate (activity of hydrolyzing an ester bond at 2-position to release arachidonic acid) was determined. In addition, the determination of activity was carried out in the same manner as the method described in the literature (Underwood et al., The Journal of Biological Chemistry, 273, 21926-21932, 1998), as follows.
First, 1 -palmitoyl-2-[^14C]arachidonyl-phosphatidylcholine (manufactured by Life Science Products) dried under a nitrogen gas was added to a reaction buffer [10 mM HEPES pH 7.5, 2 mM calcium chloride, 150 mM sodium chloride, 30% glycerol, 1 mg/ml bovine serum albumin (fatty acid-free)] so as to have a concentration of 2 μM. […] Subsequently, the radioactivity was determined with a scintillation counter.
The phospholipase A2 activity of GS21015 was determined in the presence (or in the absence) of various test substances, and the inhibitory actions by various test substances were evaluated. […]

By UniProt entry, the sequences of proteins in these tests, tags left out.
UniProt Q86XP0, whole entry P10T: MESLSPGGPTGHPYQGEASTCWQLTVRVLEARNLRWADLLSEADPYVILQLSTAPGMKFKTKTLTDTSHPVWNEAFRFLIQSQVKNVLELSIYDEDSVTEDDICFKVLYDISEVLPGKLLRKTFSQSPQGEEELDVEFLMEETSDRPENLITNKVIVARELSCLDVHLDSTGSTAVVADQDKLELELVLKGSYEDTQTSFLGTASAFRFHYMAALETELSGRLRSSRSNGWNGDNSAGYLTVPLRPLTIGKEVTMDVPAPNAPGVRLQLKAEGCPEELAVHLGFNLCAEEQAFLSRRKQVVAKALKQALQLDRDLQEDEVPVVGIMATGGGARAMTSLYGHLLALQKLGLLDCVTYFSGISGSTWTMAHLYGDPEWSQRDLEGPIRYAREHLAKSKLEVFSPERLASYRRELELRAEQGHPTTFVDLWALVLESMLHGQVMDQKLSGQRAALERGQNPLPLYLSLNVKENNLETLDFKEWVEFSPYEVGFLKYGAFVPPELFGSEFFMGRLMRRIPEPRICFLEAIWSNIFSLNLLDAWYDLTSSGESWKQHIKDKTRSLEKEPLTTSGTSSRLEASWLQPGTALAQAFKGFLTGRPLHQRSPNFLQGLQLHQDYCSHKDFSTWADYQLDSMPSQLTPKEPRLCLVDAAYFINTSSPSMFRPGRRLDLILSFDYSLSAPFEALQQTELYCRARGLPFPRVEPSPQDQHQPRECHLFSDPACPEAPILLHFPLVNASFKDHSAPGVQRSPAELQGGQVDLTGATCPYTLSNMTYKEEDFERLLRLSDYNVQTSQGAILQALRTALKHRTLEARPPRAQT
UniProt P47712, whole entry: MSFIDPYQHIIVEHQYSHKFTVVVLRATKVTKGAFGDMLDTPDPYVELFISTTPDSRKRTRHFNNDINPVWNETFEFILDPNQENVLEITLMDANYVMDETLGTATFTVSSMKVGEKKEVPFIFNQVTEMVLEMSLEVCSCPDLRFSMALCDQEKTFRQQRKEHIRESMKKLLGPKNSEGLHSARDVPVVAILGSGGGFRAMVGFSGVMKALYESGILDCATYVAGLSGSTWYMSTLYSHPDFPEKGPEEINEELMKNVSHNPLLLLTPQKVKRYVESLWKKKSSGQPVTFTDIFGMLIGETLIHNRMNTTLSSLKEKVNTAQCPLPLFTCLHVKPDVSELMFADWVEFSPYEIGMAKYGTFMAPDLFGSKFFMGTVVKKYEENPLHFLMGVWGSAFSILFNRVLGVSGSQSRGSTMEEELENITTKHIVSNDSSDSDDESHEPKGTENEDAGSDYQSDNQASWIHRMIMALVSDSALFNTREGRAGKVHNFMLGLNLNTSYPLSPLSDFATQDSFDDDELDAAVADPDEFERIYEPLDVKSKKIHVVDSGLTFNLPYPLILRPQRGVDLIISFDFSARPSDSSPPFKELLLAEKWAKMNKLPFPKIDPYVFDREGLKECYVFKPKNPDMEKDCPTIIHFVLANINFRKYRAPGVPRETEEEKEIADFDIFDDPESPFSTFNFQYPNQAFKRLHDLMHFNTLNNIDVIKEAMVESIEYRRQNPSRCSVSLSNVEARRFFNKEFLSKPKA

[2] = biological target: cPLA2α (Homo sapiens, UniProt P47712); test: Inhibitory action on phospholipase A2 activity of cPLA2α (same method as for GS21015); details: read-out: IC50 Value for cPLA2α Activity; supernatant of lysate of COS-7 cells transfected with cPLA2α expression vector; test substance 0 to 45 μM
Description: First, 1 -palmitoyl-2-[^14C]arachidonyl-phosphatidylcholine (manufactured by Life Science Products) dried under a nitrogen gas was added to a reaction buffer [10 mM HEPES pH 7.5, 2 mM calcium chloride, 150 mM sodium chloride, 30% glycerol, 1 mg/ml bovine serum albumin (fatty acid-free)] so as to have a concentration of 2 μM. The mixture was stirred, immersed in a bath-type ultrasonic washing machine for 30 minutes, and thereafter stirred again. To 250 μl of this substrate solution was added 10 μl of an enzyme solution (supernatant of cell lysate of COS-7 cells into which the expression vector plasmid for GS21015 was transfected; as a control, supernatant of the cell lysate of the same cells into which only the vector was transfected) to initiate the reaction. After the reaction was carried out while keeping the temperature at 37° C. for 0, 30 or 60 minutes, 1.25 ml of a Dole's reagent (2-propanol:heptane: 1 N sulfuric acid=20:5:1) was added thereto to stop the reaction. Further, 0.1 g of silica gel for column chromatography (manufactured by Fuji Silysia Chemical Ltd.) was added thereto and stirred. Thereafter, 0.75 ml of heptane and 0.75 ml of ion-exchanged water were added thereto. The mixture was stirred for 10 seconds or longer. […] Subsequently, the radioactivity was determined with a scintillation counter. […]

Question: Which IC50 ([1]; read-out: IC50 Value for GS21015 Activity, supernatant of lysate of COS-7 cells overexpressing GS21015, no EGTA, test substance 0 to 45 μM) does the source give for `CCCCC/C=C\C/C=C\C/C=C\C/C=C\CCCCOP(=O)(F)OC` (stereo not drawn) here?
Answer: The IC50 was under 10 µM.

Question: What about the “inhibitory action on the phospholipase A2 activity of GS21015” value ([1]; statement in words) of the same compound?
Answer: The value was “has an inhibitory action”.

Question: What about the IC50 [2] of the same compound?
Answer: The IC50 was 10 to 40 µM.
